Where a name gives a salt, the structure may show the parent alone. Read-outs that look alike come from different tables or passages of the source.

The chains behind the UniProt entries cited, without tags or fusion partners. Residues count along the entry.
UniProt Q07889, 564-1049 limits assumed: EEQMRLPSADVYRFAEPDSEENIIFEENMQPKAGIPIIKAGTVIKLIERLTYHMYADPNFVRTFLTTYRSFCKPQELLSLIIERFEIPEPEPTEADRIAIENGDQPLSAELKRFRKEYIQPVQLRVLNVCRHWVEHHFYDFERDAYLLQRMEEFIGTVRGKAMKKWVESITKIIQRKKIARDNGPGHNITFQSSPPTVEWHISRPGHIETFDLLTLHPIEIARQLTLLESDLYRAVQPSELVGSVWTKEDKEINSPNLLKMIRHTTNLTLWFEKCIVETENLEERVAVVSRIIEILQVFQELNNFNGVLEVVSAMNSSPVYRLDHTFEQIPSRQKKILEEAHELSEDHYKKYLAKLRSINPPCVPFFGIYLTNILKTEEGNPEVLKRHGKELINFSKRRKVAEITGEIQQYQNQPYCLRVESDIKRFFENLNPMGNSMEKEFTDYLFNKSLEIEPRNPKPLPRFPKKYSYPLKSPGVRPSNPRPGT
UniProt P01112, 1-166 partner limits assumed: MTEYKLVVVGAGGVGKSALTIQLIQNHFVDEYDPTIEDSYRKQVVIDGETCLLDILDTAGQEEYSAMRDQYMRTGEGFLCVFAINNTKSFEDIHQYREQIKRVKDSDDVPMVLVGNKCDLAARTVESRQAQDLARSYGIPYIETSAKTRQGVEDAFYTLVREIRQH

Usually EC50 stands for the concentration that produces a half-maximal response.

Assay [1] concerns the target Ras GEF SOS (Son of Sevenless) (Homo sapiens, UniProt Q07889). Put plainly: SOS-mediated nucleotide exchange on Ras (BODIPY-GDP fluorescence). Format: biochemical. To be noted: read-out: Nucleotide exchange activity (nucleotide exchange EC50), SOS-mediated exchange of BODIPY-GDP for GTP on Ras.
Assay [2] concerns the target Son of Sevenless (SOS) (Homo sapiens, UniProt Q07889). Put plainly: Binding to SOS, fluorescence polarization anisotropy (FPA) probe displacement. In general terms: Polarisation of emitted light reports the rotation of a fluorescent probe.

In the case of `Cc1cc2nc(N3CCNCC3)n(Cc3ccc(F)c(Cl)c3)c2cc1Cl`, the EC50 in assay [1] (tested form: trifluoroacetate) lay in the range of 1000 to 5000 nM. In addition, the Ki in assay [2] (read-out: Binding affinity to SOS, displacement of FITC-conjugated probe (Example 285), affinity calculated from IC50, tested form: trifluoroacetate) was 1000 to 5000 nM.
In the case of `Fc1ccc(Cn2c(N3CCNCC3)nc3ccc(Cl)cc32)cc1Cl` [Example 73, 6-chloro-1-(3-chloro-4-fluorobenzyl)-2-(piperazin-1-yl)-1H-benzo[d]imidazole trifluoroacetate], the EC50 in assay [1] (tested form: TFA) was less than 1000 nM. Besides, in assay [2] (read-out: Binding affinity to SOS, displacement of FITC-conjugated probe (Example 285), affinity calculated from IC50, tested form: TFA), the Ki is less than 500 nM.

The record behind these values is US10501421B1, “Substituted benzimidazoles as modulators of Ras signaling” (VANDERBILT UNIVERSITY, priority 2017, dated 2019).
